Earlier results, collected in patent US6586443B1, “Method of treating multiple sclerosis” (priority 1986, dated 2003).

Tested on: Mu and Delta opiate receptor sites
Conditions: generally rated; cited from earlier work

C=CCN1CC[C@]23c4c5ccc(O)c4O[C@H]2C(=O)CC[C@@]3(O)[C@H]1C5 [naloxone]
Mu blocking action relative to Delta blocking action: about ten
